## Ab-14 light chain CDR variants: yeast mating affinities

The measurements come from Li et al. 2023 (doi:10.1038/s41467-023-39022-2) through the FLAb antibody collection.

The target is the same throughout: PDVDLGDISGINAS, from the HR2 region of SARS-CoV-2 spike.

Each scFv is VH, a (GGGGS)3 linker, VL, as in the parent Ab-14, and differs from it in the CDRs of the light chain only.
VH: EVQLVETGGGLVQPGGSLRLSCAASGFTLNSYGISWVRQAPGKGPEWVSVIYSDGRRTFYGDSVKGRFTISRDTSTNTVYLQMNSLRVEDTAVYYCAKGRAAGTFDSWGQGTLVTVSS
VL: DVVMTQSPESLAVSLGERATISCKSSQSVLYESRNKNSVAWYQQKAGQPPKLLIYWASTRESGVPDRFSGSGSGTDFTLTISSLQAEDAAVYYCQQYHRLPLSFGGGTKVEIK

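Phage display of a naive human antibody library on the peptide gave the parent. These sequences belong to a second round, designed from the earlier measurements on random variants of the parent. Their group label is 14L_En_Gibbs (En: ensemble of fine-tuned language models; Gibbs: Gibbs sampling). AlphaSeq pools MATa yeast showing the antibodies with MATalpha yeast showing the peptide. Binding brings cells together so that they mate, and sequencing counts the barcode pairs among the diploids. Each replicate has its own calibration line, from reference interactions of the BCL2 family. The assay was run in six technical replicates.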

Each variant is given by its three light chain CDRs, as the data file delimits them; those of the parent are KSSQSVLYESRNKNSVA, WASTRES, QQYHRLPLS. Numbers give log10(Kd / nM), so 0 is 1 nM and 3 is 1 µM. Smaller is tighter. "n.d." means that the variant was in the library but no mating with the target was seen in that replicate; the authors take this as a sign of poor binding, and no number exists. Background: pairings of all light chain designs with three empty control strains gave a value in 4% of cases (median 2.64, 5th percentile 1.59). Values in that range, when seen in few replicates, are hard to tell from nonspecific mating. For each scFv, signals with the empty controls are counted beside the result, with their mean in brackets.

| CDR-L1 | CDR-L2 | CDR-L3 | log10 Kd (nM) by replicate | empty controls |
|---|---|---|---|---|
| RLTQQMYGFNIHANAIA | SGAERQW | QQYARLPIS | 1.99 / 2.63 / 1.23 / 1.12 / n.d. / n.d. | 0/18 |
| TITGEQSMSTQGNWSIA | QAEQKVH | QQYDRLPLA | n.d. / n.d. / n.d. / n.d. / n.d. / n.d. | 1/18 (2.61) |
| ALELFEYQIMKDINSIA | NTETKTN | QQYVRLPFS | 0.68 / 0.44 / 1.15 / 0.77 / 0.25 / 0.51 | 0/18 |
| KINERMRSGENIQHSIA | NATEIVH | QQYHNLPLG | 1.52 / 1.37 / 1.54 / 2.07 / 2.03 / 1.62 | 0/18 |
| KLASRQYQFGANHQNIA | DATDSMN | QQYMHLPFT | -0.55 / -0.29 / -0.83 / -0.91 / -0.67 / -0.55 | 0/18 |
| QVAAIHEHEKDQNQAMA | EASMRDA | QQYERLPLS | 1.18 / 1.18 / 0.53 / 0.99 / 1.55 / 1.63 | 0/18 |
| KMETYSQDNRLDISAIA | EAQTIYQ | QQYARLPLS | 1.45 / 1.50 / 0.97 / 0.92 / 0.81 / 0.85 | 0/18 |
| NLSWKSLGFENEWMAIA | NTKERNA | QQYARLPLS | 0.68 / 0.61 / 0.51 / 0.42 / 0.64 / 0.69 | 4/18 (2.63) |
| QVAAIHEHSSDLNKAMA | EASTRDA | QQYERLPLS | 0.29 / 0.45 / 0.78 / 0.45 / 0.28 / 0.19 | 0/18 |
| KITLIFSNKGNSDHSVA | NAETLAH | QQYYMLPLM | 0.47 / -0.03 / -0.23 / 0.21 / 0.07 / 0.47 | 1/18 (3.65) |
| QIQFLDVQYGVKEQAIA | EENQRHQ | QHYFRLPLS | n.d. / 1.51 / 4.01 / 1.42 / 2.06 / n.d. | 0/18 |
| TLMHHQDYGGEIKKSIA | NAIIKEE | QQYSRLPLA | 0.71 / 0.64 / 0.55 / 0.51 / 0.75 / 1.05 | 0/18 |
| KLGYTSYGEVNGQHNIA | EMDQLTF | QQYSHLPLS | 0.17 / 0.34 / 0.38 / -0.05 / 0.25 / 0.04 | 0/18 |
| KINERMRSGENSQHSIA | NATEIVK | QQYHNLPLG | 1.52 / 2.43 / 1.50 / 1.73 / 1.31 / 1.71 | 0/18 |
| KLMNSLDAFKQWEDNIA | ETEHKVA | QQYYHLPLT | n.d. / n.d. / 2.66 / n.d. / n.d. / 2.55 | 0/18 |
| QVAAIHEHSSDLNKAVA | EASTRDA | QQYERLPLS | 0.23 / 0.76 / 0.56 / 0.48 / 0.18 / 0.19 | 0/18 |
| KLANSTRTNLRGTNAVA | QGSNRAM | QQYQRLPFL | 0.96 / 0.80 / 1.00 / 0.82 / 1.00 / 0.91 | 1/18 (2.82) |
| IIEQGEYEQEQHKNAIA | DGEERMR | QQYYKLPLV | 0.39 / 0.60 / 0.05 / 0.08 / 0.29 / 0.24 | 0/18 |
| QINMEMYHDLDDAQNVA | DAMTEVK | QQYNRLPLS | 1.25 / 0.66 / 1.01 / 1.24 / 1.40 / 1.25 | 1/18 (1.36) |
| NLDKADYEMRQMINNIA | DMSTLVA | QQYASLPLD | 1.78 / 1.27 / 0.97 / 0.31 / 0.90 / 1.78 | 2/18 (1.88) |
| ILEENADDITEIGNSIA | ETNMVRS | QQYHRLPLA | 0.59 / 0.68 / 0.79 / 0.36 / 0.46 / 0.73 | 0/18 |
| SLMDNPWVEDTYRKAIA | DINVRAD | QQYHRLPLS | 0.33 / 0.51 / 0.36 / 0.41 / 0.49 / 0.56 | 2/18 (2.21) |
| KIQMFLGTLMEQINSIA | NSEEIVQ | QSYFRLPLS | 1.77 / 1.23 / n.d. / 1.76 / 1.35 / 1.46 | 0/18 |
| KMTEQLLNGEREPSSIA | AGVIGSD | QQYHRLPLI | 1.21 / 1.60 / 0.85 / 1.29 / 1.23 / 1.78 | 0/18 |
| NLGQKMALITGQRQQIA | DSTVRED | QQYSRLPLT | 0.22 / 0.34 / 0.01 / 0.03 / -0.02 / 0.44 | 2/18 (3.09) |
| HISSMDGHDGGIIHNVA | DTGVTSR | QQYSRLPLI | -0.09 / 0.39 / 0.02 / -0.04 / -0.23 / 0.11 | 1/18 (2.69) |
| KLMTQFGHQMDHKNSIA | HVDMVAQ | QQYMHLPLI | n.d. / n.d. / n.d. / n.d. / n.d. / n.d. | 0/18 |
| HIELGTWGVQKFDSSVA | HASQRQE | QQYDQLPLT | 0.77 / 0.94 / 0.71 / 0.45 / 0.78 / 0.90 | 2/18 (2.73) |
| RVQLNSGHIDMHWYSIA | SASIRAD | QQYFRLPLF | -0.01 / 0.00 / -0.18 / -0.19 / -0.48 / -0.01 | 0/18 |
| KLAMILSMWADTYHGVA | DANHKAS | QQYNRLPLS | 0.82 / 0.68 / 0.91 / 0.58 / 0.86 / 0.87 | 0/18 |
| TLMMDPTEQRDSKHAIA | DNNQRDR | QQYHRLPLY | 2.09 / 2.24 / 1.55 / 1.91 / 2.10 / 3.07 | 3/18 (2.25) |
| VLAMESYGKSRHESNIA | GANMLSQ | QQYARLPFA | 0.70 / 0.49 / 0.70 / 0.24 / 0.60 / 0.45 | 0/18 |
| AIKQLWSTMGAARHNVA | EADTRAI | QDYFRLPLI | 0.41 / 0.59 / 0.47 / 0.35 / 0.35 / 0.87 | 0/18 |
| AMQMERLGQGQYQNNIA | NQDLRTA | QQYYMLPLV | 0.75 / 0.60 / 0.79 / 0.57 / 0.45 / 0.48 | 1/18 (2.83) |
| HLSFPWQSGHDSTHAVA | NDSTLMT | QSYNRLPLS | 1.92 / 2.97 / 1.78 / 1.14 / 1.74 / 1.28 | 3/18 (2.88) |
| KLKELFNMWARAQGNVA | DATERNT | QQYSRLPIC | 0.64 / 1.03 / 0.96 / 0.94 / 0.98 / 0.66 | 0/18 |
| MLSQTVDYNYTAGNSVA | EVTEKCN | QQYKRLPLS | 0.95 / 1.25 / 0.86 / 0.82 / 0.65 / 1.14 | 1/18 (3.84) |
| KLLDWEYGTWAMNSAIA | DAALESD | QQYDRLPLT | n.d. / 2.07 / 1.44 / 1.29 / n.d. / 3.18 | 1/18 (1.91) |
| KLMNSLGAFKQWEDNVA | EVEHKVA | QQYQHLPLT | 1.26 / 1.41 / 1.45 / 1.23 / 1.27 / 1.24 | 3/18 (3.14) |
| SLSPFMDTDANKYDSVA | NTANIDI | QQYDRLPLS | n.d. / 2.09 / 1.97 / 2.02 / 1.47 / 2.65 | 1/18 (2.52) |
| TLWDSIQGGDKAKKNVA | DRQVRMV | QQYYRLPLS | 0.79 / 0.54 / 0.59 / 0.28 / 0.58 / 0.41 | 1/18 (3.04) |
| VYNLPFEGVQPKKYSIA | NAEIREI | QQYFRLPIL | 1.20 / 2.21 / 1.40 / 1.43 / 1.50 / 1.54 | 2/18 (2.95) |

Excerpt, the first 5 entries:

| CDR-L1 | CDR-L2 | CDR-L3 | log10 Kd (nM) by replicate | empty controls |
|---|---|---|---|---|
| RLTQQMYGFNIHANAIA | SGAERQW | QQYARLPIS | 1.99 / 2.63 / 1.23 / 1.12 / n.d. / n.d. | 0/18 |
| TITGEQSMSTQGNWSIA | QAEQKVH | QQYDRLPLA | n.d. / n.d. / n.d. / n.d. / n.d. / n.d. | 1/18 (2.61) |
| ALELFEYQIMKDINSIA | NTETKTN | QQYVRLPFS | 0.68 / 0.44 / 1.15 / 0.77 / 0.25 / 0.51 | 0/18 |
| KINERMRSGENIQHSIA | NATEIVH | QQYHNLPLG | 1.52 / 1.37 / 1.54 / 2.07 / 2.03 / 1.62 | 0/18 |
| KLASRQYQFGANHQNIA | DATDSMN | QQYMHLPFT | -0.55 / -0.29 / -0.83 / -0.91 / -0.67 / -0.55 | 0/18 |

A sequence measured in both rounds can read differently, since the two assays cover different ranges. The authors averaged sequences with at least three values out of six and counted those with two or fewer as poor binders.